From BindingDB's records for 21208801

Amino acid sequences for entries named in this document (tags omitted). A change or cut given only in a name is not applied to a line headed by its entry.
UniProt B5SU02: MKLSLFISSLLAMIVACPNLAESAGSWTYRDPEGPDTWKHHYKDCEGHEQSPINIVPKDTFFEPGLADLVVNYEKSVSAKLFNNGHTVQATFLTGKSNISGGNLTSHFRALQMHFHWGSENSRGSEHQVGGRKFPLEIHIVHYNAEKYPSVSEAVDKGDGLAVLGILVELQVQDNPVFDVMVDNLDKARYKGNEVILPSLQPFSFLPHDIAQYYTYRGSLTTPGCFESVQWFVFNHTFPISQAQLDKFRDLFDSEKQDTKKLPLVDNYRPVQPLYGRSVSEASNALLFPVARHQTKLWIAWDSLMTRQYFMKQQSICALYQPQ

Biological target: Carbonic anhydrase (Stylophora pistillata, UniProt B5SU02)
Assay: Inhibition of Stylophora pistillata carbonic anhydrase by stopped-flow CO2 hydration assay

Work on O=[As](O)(O)c1ccccc1 yielded a Ki of 780 µM.
